# Test results taken from PubChem BioAssay AID1645882 (National Center for Advancing Translational Sciences (NCATS), 2021).
# The chains behind the UniProt entries cited, without tags or fusion partners.
# UniProt O95398, whole entry: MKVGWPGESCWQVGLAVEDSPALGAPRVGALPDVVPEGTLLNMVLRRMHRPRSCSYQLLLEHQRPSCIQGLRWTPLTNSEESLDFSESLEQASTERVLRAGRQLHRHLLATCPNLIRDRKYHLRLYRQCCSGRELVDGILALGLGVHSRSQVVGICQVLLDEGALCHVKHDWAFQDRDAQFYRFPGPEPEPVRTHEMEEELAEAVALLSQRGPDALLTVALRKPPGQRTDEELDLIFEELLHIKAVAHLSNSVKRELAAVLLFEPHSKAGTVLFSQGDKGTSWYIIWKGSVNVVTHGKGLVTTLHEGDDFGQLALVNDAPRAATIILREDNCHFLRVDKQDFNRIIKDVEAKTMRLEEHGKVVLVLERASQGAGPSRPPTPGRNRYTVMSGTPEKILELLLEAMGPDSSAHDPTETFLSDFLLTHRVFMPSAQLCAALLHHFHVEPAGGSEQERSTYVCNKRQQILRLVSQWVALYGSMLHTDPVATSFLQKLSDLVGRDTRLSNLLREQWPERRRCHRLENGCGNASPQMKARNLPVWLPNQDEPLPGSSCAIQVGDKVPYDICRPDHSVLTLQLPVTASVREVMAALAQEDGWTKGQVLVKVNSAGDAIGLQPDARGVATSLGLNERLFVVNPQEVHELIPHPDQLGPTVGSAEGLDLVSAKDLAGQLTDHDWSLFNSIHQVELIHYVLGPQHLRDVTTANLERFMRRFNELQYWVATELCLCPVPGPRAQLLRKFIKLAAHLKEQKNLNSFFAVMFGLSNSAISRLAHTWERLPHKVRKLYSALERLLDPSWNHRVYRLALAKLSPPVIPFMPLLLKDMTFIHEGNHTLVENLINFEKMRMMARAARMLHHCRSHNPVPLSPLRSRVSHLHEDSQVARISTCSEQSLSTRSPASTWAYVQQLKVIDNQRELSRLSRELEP
# This is a selection; strong and weak results do not stand in their true shares. Records with an inconclusive call do not appear. The source made the active and inactive calls. Calls follow the shape of the dose curve; as a rule, active = well fitted inhibition curve with a large enough effect; inconclusive = small, poorly fitted or top-dose-only effect; inactive = no such curve, though single readings can be large or run the other way.
# Target: Rap guanine nucleotide exchange factor 3 (Homo sapiens) (UniProt O95398)
# Assay: Validation qHTS for antagonist of cAMP-regulated guanine nucleotide exchange factor 3 (EPAC1); also: nearly all actives have a fitted effect of over 75% in size
# Conditions: EPAC1 Rap1B-BODIPY-GDP exchange, fluorescence
# Text: Assay Provider (PI): Xiaodong Cheng Ph.D.
# The University of Texas Medical Branch, […], TX
# In multi-cellular eukaryotic organisms, the effects of cAMP are transduced by two ubiquitously-expressed intracellular cAMP receptors, the classic protein kinase A/cAMP-dependent protein kinase (PKA/cAPK) and the more recently discovered exchange protein directly activated by cAMP/cAMP-regulated guanine nucleotide exchange factor (EPAC/cAMP-GEF). Both PKA and EPAC are ubiquitously expressed in all tissues, and an increase in intracellular cAMP levels will lead to the activation of both PKA and EPAC. Therefore, careful dissections of the individual role and relative contribution of EPAC and PKA within the overall cAMP signaling in various model systems are critical for further elucidating the mechanism of cAMP signaling. To date no EPAC-specific antagonists and agonist, as well as isoform-specific agonists have been reported, and developing EPAC-specific pharmacological probes to determine the physiological functions that EPAC play in the overall cAMP-mediated signaling remains a major challenge within the research field. Furthermore, identified regulators of EPAC may lead to new mechanism-based therapeutic strategies specifically targeting the EPAC / cAMP-signaling components as EPAC has been implicated to play important roles in major human pathological conditions such as diabetes, heart disease, and cancer.
# This qHTS will be used to screen the Molecular Libraries Small Molecule Repository (MLSMR) as a concentration-titration series using the NCGC unique quantitative screening (qHTS) platform to find activators for EPAC1. In addition, this assay will also be used as a counterscreen for the EPAC2 qHTS. This fluorescent based assay is developed and validated for EPAC1 that measures exchange using EPAC effector Rap1 complex with BODIPY-GDP, a GDP analog with a tethered fluorophores. Activators are identified by monitoring the change in fluorescence signal as the exchanged free BODIPY-GDP has a reduced fluorescence compared to Rap1-bound BODIPY-GDP. Increase in signal (activation) is the desired outcome for the EPAC1 agonist while no activity in this assay is desired for the EPAC2 agonist counterscreen.
# [1] de Rooij, J., Zwartkruis, F. J., Verheijen, M. H., Cool, R. H., Nijman, S. M., Wittinghofer, A., and Bos, J.L. (1998) Nature 396, 474-477.
# Briefly, three uL of reagents (100 nM EPAC1, 250 nM RAP1B-BODIPY-GDP, 50 uM GDP) were dispensed into a 1536-well Greiner black solid-bottom medium binding assay plate. Controls and test compounds (23 nL) were transferred to the plate via a Kalypsys pin tool equipped with a 1536-pin array. The plates were centrifuged at 1,000 rpm for 15 seconds followed by 5 minute incubation at room temperature. The assay plates were read at 5 minute intervals for 30 minutes in the ViewLux plate reader using 480nm excitation and 540nm emission filters. The results were normalized to the […] positive control ATA and DMSO.
smiles,measurement,setting,value
CCOP(=O)(CC)Oc1ccc([N+](=O)[O-])cc1 (configuration not stated),"activity change, negative = inhibition",at 150 µM (top of the series),inactive: 23.7%
Cc1cccc([N+](=O)[O-])c1[N+](=O)[O-],"activity change, negative = inhibition",at 320 µM (top of the series),inactive: 34%
CCN(CCCl)Cc1ccccc1C,"activity change, negative = inhibition",at 150 µM (top of the series),inactive: 22.3%
C/C1=C2N=C(/C=C3N=C(/C(C)=C4\[N-][C@@](C)([C@@H]5N=C1[C@](C)(CCC(=O)NC[C@@H](C)OP(=O)([O-])O[C@H]1[C@@H](O)[C@@H](n6cnc7cc(C)c(C)cc76)O[C@@H]1CO)[C@H]5CC(N)=O)[C@@](C)(CC(N)=O)[C@@H]4CCC(N)=O)[C@@](C)(CC(N)=O)[C@@H]\3CCC(N)=O)C(C)(C)[C@@H]/2CCC(N)=O.[C-]#N.[Co+3],"activity change, negative = inhibition",at 75.8 µM (top of the series),inactive: 6.61%
OCCSCCO,"activity change, negative = inhibition",at 150 µM (top of the series),inactive: -18%
CC(C)OP(=O)(F)OC(C)C,"activity change, negative = inhibition",at 150 µM (top of the series),inactive: -8.66%
O=[N+]([O-])[O-].[NH4+],"activity change, negative = inhibition",at 150 µM (top of the series),inactive: 16.9%
CN(C)CCS,"activity change, negative = inhibition",at 150 µM (top of the series),inactive: 9.56%
CC(C)N(CCCl)C(C)C,"activity change, negative = inhibition",at 150 µM (top of the series),inactive: -8.49%
O=[N+]([O-])OCC(CO[N+](=O)[O-])(CO[N+](=O)[O-])CO[N+](=O)[O-],"activity change, negative = inhibition",at 150 µM (top of the series),inactive: 2.46%
O=[N+]([O-])c1cccc([N+](=O)[O-])c1,"activity change, negative = inhibition",at 150 µM (top of the series),inactive: -0.322%
same,"activity change, negative = inhibition",at 320 µM (top of the series),inactive: 21.9%
